Assays:
[1] = target: human insulin receptor (A-isoform) ectodomain (human); test: radioligand binding
[2] = target: human IGF1R ectodomain (Δβ mutant) (human) (UniProt P08069); test: radioligand binding
[3] = target: IGF1Rzip (IGF1R ectodomain construct with leucine zipper) (human) (UniProt P08069); test: cryo-EM structure

Substance | IC50 [1] [nM] | IC50 [2] [nM] | stoichiometry N (scLCDV1-VILP per IGF1R ectodomain dimer) [3]
double chain LCDV1-VILP (Lymphocystis disease virus-1 viral insulin/IGF-1 like peptide) | > 1000 | – | –
human insulin (unlabeled) (ligand) | 0.5 | – | –
single chain LCDV1-VILP (Lymphocystis disease virus-1 viral insulin/IGF-1 like peptide) | – | 3.3 | 2

Reference: PMC9637144
